Patent publication US6974804B2, “Esters” (Unilever Home & Personal Care USA, division of Conopco, Inc., priority 2000, dated 2005)

Experiment: Light transmission at 580 nm (% T)
Assay type: physicochemical
Details: gel in 60:40 w/w Silkflo 364:DC245
Procedure: The translucency of a composition may be measured by placing a sample of standardised thickness in the light path of a spectrophotometer and measuring transmittance, as a percentage of light transmitted in the absence of the gel.
This test was carried out using a dual-beam spectrophotometer. The sample of composition was poured hot into a 4.5 ml cuvette made of poly(methyl-methacrylate) (PMMA) and allowed to cool to an ambient temperature of 20-25° C. Such a cuvette gives a 1 cm thickness of composition. […] A transmittence measured at any temperature in the range from 20-25° C. is usually adequately accurate, but measurement is made at 22° C. if more precision is required.

Row | Substance | % T [%]
1 | cellobiose heptanonanoate monocyclohexanoate [Ex 1.10] | 48
2 | cellobiose heptanonanoate monocyclohexanoate [Ex 1.14] | 22
3 | cellobiose heptanonanoate monocyclohexanoate [Ex 1.13] | 41
4 | cellobiose heptanonanoate monocyclohexanoate [Ex 3.2] | 34
5 | cellobiose heptanonanoate monocyclohexanoate [Ex 3.1] | 26
6 | cellobiose heptanonanoate monocyclohexanoate [Ex 1.12] | 38
